Test results published in patent publication US9056874B2, “Complement pathway modulators and uses thereof” (NOVARTIS AG, priority 2012, dated 2015).

Sequences of proteins named here, by UniProt entry; tags and fusion partners are left off. Residues count along the entry.
UniProt P00751, 260-764 limits assumed: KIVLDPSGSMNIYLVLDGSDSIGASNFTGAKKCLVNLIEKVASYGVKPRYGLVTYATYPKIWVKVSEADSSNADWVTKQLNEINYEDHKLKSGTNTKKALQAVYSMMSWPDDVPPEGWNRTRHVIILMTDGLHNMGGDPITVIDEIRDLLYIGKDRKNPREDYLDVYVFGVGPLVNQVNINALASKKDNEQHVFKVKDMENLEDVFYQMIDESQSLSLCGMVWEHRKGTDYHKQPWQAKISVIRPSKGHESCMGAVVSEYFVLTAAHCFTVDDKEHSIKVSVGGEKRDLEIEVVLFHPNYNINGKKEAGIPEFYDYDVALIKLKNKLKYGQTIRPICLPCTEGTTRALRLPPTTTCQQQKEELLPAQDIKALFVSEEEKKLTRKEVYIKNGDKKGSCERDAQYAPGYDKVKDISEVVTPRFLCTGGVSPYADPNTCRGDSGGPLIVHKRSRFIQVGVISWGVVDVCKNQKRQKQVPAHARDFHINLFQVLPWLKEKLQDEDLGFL
UniProt Q91132, 23-649 partner limits assumed: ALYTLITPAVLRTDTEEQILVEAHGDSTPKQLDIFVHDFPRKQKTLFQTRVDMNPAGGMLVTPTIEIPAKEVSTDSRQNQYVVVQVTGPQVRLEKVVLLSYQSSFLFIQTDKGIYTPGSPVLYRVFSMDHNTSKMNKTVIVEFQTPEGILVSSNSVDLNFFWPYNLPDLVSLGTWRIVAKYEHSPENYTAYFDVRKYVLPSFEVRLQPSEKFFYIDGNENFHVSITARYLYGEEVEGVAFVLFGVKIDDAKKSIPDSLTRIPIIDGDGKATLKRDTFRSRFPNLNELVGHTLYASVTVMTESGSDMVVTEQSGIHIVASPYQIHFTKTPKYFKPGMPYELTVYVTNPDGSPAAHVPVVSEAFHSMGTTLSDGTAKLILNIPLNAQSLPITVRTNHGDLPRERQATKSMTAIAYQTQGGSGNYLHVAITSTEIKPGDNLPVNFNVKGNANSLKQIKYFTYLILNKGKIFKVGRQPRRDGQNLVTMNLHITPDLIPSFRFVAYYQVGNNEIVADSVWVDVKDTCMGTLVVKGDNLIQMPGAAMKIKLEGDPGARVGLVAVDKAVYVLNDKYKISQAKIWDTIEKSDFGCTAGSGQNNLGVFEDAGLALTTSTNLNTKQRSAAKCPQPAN
UniProt Q91132, 733-984 partner limits assumed: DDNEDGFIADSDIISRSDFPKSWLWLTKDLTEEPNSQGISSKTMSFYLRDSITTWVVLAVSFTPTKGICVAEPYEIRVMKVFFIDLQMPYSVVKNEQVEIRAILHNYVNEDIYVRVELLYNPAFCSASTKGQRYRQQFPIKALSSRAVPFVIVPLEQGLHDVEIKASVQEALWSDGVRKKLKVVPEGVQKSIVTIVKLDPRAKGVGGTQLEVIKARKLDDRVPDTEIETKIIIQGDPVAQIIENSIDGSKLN
UniProt Q91132, 1264-1642 partner limits assumed: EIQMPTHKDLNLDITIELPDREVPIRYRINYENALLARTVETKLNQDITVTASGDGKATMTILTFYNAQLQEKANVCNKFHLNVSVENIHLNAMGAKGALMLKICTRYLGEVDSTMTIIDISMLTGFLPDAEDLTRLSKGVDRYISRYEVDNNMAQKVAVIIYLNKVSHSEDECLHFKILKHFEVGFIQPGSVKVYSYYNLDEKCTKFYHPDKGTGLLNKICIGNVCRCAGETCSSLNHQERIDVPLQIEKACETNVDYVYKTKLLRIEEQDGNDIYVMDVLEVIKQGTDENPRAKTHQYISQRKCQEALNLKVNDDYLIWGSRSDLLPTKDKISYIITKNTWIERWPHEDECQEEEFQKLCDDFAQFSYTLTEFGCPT

Target: factor B (Homo sapiens, UniProt P00751)
Experiment: factor B inhibition assay of Biological Example 1
Type: biochemical
Details: assay of Biological Example 1 (Table 1)

Q: For CCc1cc(C)c2[nH]ccc2c1Cc1nc2cc(C#N)c(F)cc2[nH]1, which IC50 is on record?
A: 1190 nM
